# Apparent affinities of Ab-14 variants for a coronavirus HR2 peptide

Antigen: PDVDLGDISGINAS, a 14-residue peptide of the SARS-CoV-2 spike HR2 region.

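These sequences belong to a second round, designed from the earlier measurements on random variants of the parent. Several design methods are mixed in this list. AlphaSeq pools MATa yeast showing the antibodies with MATalpha yeast showing the peptide. Binding brings cells together so that they mate, and sequencing counts the barcode pairs among the diploids. A regression on co-assayed BCL2-family reference pairs converts the normalised counts of each replicate to an apparent Kd. Each pool was mated in six replicate cultures.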

Each scFv is VH, a 15-residue (Gly4Ser)3 linker, VL, as in the parent Ab-14, and differs from it in the CDRs of the heavy chain only.
VH: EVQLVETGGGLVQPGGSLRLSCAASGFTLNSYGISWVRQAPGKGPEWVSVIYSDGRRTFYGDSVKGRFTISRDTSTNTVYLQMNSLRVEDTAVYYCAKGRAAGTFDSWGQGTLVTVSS
VL: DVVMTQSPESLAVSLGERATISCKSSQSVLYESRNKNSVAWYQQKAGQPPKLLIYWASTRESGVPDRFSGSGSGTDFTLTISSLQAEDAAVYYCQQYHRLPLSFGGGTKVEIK

Sequences are complete VH domains. Values are log10 of the apparent Kd in nM; lower means stronger binding. A mean of the replicates is given; it leaves out those without a signal. A pair that was not seen in any replicate is written "no signal"; this usually means weak binding, but a binder can also be missed. The list is sorted by this average, lowest first, undetected variants last. The authors averaged sequences with at least three values out of six and counted those with two or fewer as poor binders.

| VH | mean, log10 nM | detected |
|---|---|---|
| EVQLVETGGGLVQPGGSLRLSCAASGFDLNEYGISWVRQAPGKGPEWVSVIYADGMRTAYSDSVKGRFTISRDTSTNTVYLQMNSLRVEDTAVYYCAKGHNAGTFDVWGQGTLVTVSS | -0.80 | 6/6 |
| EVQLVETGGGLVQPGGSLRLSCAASGFDLDEYGISWVRQAPGKGPEWVSVIYADGKRTAYADSVKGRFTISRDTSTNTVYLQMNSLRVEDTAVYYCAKGEVAGTFDIWGQGTLVTVSS | -0.47 | 6/6 |
| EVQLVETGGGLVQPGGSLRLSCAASGFDLNEYGISWVRQAPGKGPEWVSVIYADGQRTYYADSVKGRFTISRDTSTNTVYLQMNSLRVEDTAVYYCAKGNNAGTFDIWGQGTLVTVSS | -0.34 | 6/6 |
| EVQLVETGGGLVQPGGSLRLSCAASGFDLNSYGISWVRQAPGKGPEWVSVIYSDGRRTFYDDSVKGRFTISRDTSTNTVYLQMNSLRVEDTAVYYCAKGKQAGTFDSWGQGTLVTVSS | -0.10 | 6/6 |
| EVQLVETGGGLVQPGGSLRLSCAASGFNLNSYGISWVRQAPGKGPEWVSVIYSDGRRTFYKDSVKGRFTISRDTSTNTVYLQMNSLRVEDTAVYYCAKGSTAGTFDSWGQGTLVTVSS | 0.24 | 6/6 |
| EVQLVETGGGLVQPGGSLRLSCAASGFNLNSYGISWVRQAPGKGPEWVSVIYSDGRRTAYGDSVKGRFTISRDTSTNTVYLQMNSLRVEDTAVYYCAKGRNAGTFDSWGQGTLVTVSS | 0.42 | 6/6 |
| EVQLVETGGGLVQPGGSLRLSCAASGFTIMEYGISWVRQAPGKGPEWVSVIYSDGLRTFYSDSVKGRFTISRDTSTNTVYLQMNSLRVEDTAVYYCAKGKAAGTFDSWGQGTLVTVSS | 0.50 | 6/6 |
| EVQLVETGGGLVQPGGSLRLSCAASGFNLNSYGISWVRQAPGKGPEWVSVIYSDGRRTFYSDRVKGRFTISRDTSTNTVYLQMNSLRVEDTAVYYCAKGEAAGTFDSWGQGTLVTVSS | 0.73 | 6/6 |
| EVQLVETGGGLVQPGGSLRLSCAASGFTLNSYGISWVRQAPGKGPEWVSVIYSDGLRTFYTDSVKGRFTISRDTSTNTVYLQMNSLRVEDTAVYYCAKGKVAGTFDSWGQGTLVTVSS | 0.96 | 5/6 |
| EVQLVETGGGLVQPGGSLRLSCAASGFDLNSYGISWVRQAPGKGPEWVSVIYSDGRRTFYCDSVKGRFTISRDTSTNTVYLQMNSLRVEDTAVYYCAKGRLAGTFDSWGQGTLVTVSS | 1.00 | 5/6 |
| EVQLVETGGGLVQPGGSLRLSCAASGFTLNSYGISWVRQAPGKGPEWVSVIYSDGKRTFYGDDVKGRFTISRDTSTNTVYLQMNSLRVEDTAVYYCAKGRNAGTFDSWGQGTLVTVSS | 1.27 | 6/6 |
| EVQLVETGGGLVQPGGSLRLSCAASGFTLNSYGISWVRQAPGKGPEWVSVIYSDGLRTFYIDSVKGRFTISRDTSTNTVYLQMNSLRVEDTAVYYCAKGKAAGTFDSWGQGTLVTVSS | 1.61 | 3/6 |
| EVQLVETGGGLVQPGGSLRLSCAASGFDLNSYGISWVRQAPGKGPEWVSVIYSDGRRTFYVDRVKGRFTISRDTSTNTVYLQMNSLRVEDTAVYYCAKGRTAGTFDSWGQGTLVTVSS | 1.75 | 5/6 |
| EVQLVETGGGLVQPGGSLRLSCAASGFTLNSYGISWVRQAPGKGPEWVSVIYSDGRRTQYGDSVKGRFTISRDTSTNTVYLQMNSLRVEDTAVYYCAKGSNAGTFDSWGQGTLVTVSS | 1.89 | 2/6 |
| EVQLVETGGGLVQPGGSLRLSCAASGMGLDSYGISWVRQAPGKGPEWVSVIYADGMRTSYDNSVKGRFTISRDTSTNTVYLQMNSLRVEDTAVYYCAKGAWAGTFDEWGQGTLVTVSS | 1.91 | 2/6 |
| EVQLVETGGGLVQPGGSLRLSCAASGPTLNDYGISWVRQAPGKGPEWVSVIYSDGRRTQYIDSVKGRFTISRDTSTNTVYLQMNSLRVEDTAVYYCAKGRAAGTFDSWGQGTLVTVSS | 2.28 | 1/6 |
| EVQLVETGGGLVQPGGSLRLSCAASGFDIEEYGISWVRQAPGKGPEWVSVIYADGKRMAYSNNVKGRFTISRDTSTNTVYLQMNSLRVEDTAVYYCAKGLMAGTMIDWGQGTLVTVSS | 3.19 | 1/6 |
| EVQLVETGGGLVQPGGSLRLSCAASGFTLNSYGISWVRQAPGKGPEWVSVIYRDGRRTFYGDSVKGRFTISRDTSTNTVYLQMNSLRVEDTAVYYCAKGIAAGTFRSWGQGTLVTVSS | no signal | 0/6 |
| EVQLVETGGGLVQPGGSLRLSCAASGNSLDEYGISWVRQAPGKGPEWVSVIYADGMRTAYTDDVKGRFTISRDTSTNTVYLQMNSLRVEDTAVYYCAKGVVSMTLVDWGQGTLVTVSS | no signal | 0/6 |
| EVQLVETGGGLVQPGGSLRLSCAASGFNLNSYGISWVRQAPGKGPEWVSVIYSDGRRTFYIDSVKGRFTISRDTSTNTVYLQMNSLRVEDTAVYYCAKGRYAGTFDSWGQGTLVTVSS | no signal | 0/6 |
| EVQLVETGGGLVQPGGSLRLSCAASGFSLDEMGISWVRQAPGKGPEWVSVIYADGQRTAYQDNVKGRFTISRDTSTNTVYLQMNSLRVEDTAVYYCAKGANGVVVFVWGQGTLVTVSS | no signal | 0/6 |

The 3 strongest on average among those seen in every replicate, once more:

| VH | mean, log10 nM | detected |
|---|---|---|
| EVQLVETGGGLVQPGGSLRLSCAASGFDLNEYGISWVRQAPGKGPEWVSVIYADGMRTAYSDSVKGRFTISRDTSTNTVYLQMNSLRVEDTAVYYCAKGHNAGTFDVWGQGTLVTVSS | -0.80 | 6/6 |
| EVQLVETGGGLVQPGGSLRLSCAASGFDLDEYGISWVRQAPGKGPEWVSVIYADGKRTAYADSVKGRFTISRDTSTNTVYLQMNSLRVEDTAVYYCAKGEVAGTFDIWGQGTLVTVSS | -0.47 | 6/6 |
| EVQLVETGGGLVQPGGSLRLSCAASGFDLNEYGISWVRQAPGKGPEWVSVIYADGQRTYYADSVKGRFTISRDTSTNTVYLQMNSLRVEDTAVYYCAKGNNAGTFDIWGQGTLVTVSS | -0.34 | 6/6 |

Empty control strains, which show no peptide, gave a signal in 1% of pairings with all heavy chain designs; the median was 2.08 and 95% of these signals were weaker than 0.84. No background was subtracted. A sequence measured in both rounds can read differently, since the two assays cover different ranges.

Data: MIT Lincoln Laboratory AlphaSeq set, Li et al. 2023, doi:10.1038/s41467-023-39022-2, as distributed in FLAb.